Results as given in patent US20240041877A1, “DOSAGE REGIME AND METHOD FOR TREATING PULMONARY ARTERIAL HYPERTENSION” (Altavant Sciences GmbH, priority 2019, published 2024).

What was measured:
[1] = Part 2 (MAD): plasma pharmacokinetics after BID oral KAR5585 for 14 days (incl. accumulation ratios and dose proportionality); conditions: for AUC0-24: Geo. Mean
[2] = test system: serum 5-HT; assay: Part 2 (MAD) biomarker: serum 5-HT change from Day 1 predose; format: in vivo, human
From the text: (§1) Biomarkers were to be evaluated in Part 2 by measuring concentrations of serotonin (5-hydroxytryptamine [5-HT]) in serum and 5-hydroxyindoleacetic acid (5-HIAA) in plasma and urine. As well, the relationship of biomarkers to PK parameters was to be evaluated.
(§2) The biomarker analysis was to be based on the Biomarker Population (all subjects with evaluable biomarker measurements at baseline [Day 1 predose] and at least one after dosing [Day 7 or Day 14]).
(§3) Biomarker data were to be collected only in Part 2. The following biomarkers were to be analyzed: • Serum 5-HT • Plasma 5-HIAA • Urine 5-HIAA/24 hours (as measured, adjusted, estimated, and per gram creatinine)
(§4) Summary statistics (mean, standard deviation [SD], median, minimum [Min], and maximum [Max]) were to be tabulated for each biomarker, by Cohort, with absolute and relative (%) changes from Day 1 predose. […]
The biomarker portion of the study was conducted in Part 2 MAD using the Biomarker Population. The biomarkers evaluated were serum 5-HT and plasma 5-HIAA, as well as urine 5-HIAA/24 hours (as measured, adjusted, estimated, and per gram creatinine). Urinary 5-HIAA was determined by a validated (21 C.F.R. 58, GLP-compliant) method using liquid chromatographic separation and tandem mass spectrometry detection.

[3] = Study KAR5585-101 Part 1 (SAD): plasma pharmacokinetics after a single oral dose of KAR5585, fasting and fed (incl. dose proportionality and food effect); conditions: for AUC(0-t): human, po
[4] = test system: urine 5-HIAA (a PD marker of 5-HT synthesis); assay: Part 2 (MAD) biomarker: urine 5-HIAA/24 hours (measured, adjusted, estimated, per gram creatinine); format: in vivo, human; conditions: exception: relative change on Day 14, 100 mg fasting group
From the text: as §1, §2, §3, §4
The biomarker portion of the study was conducted in Part 2 MAD using the Biomarker Population. The biomarkers evaluated were serum 5-HT and plasma 5-HIAA, as well as urine 5-HIAA/24 hours (as measured, adjusted, estimated, and per gram creatinine). Urinary 5-HIAA was determined by a validated (21 C.F.R. 58, GLP-compliant) method using liquid chromatographic separation and tandem mass spectrometry detection. […]

[5] = clinical; conditions: human, in vivo, 400 mg/dose
[6] = Thermodynamic stability of crystalline forms of KAR5585; format: physicochemical; conditions: particularly at temperatures of less than 95° C.
[7] = 100 mg (Cohort 2) to 400 mg (Cohort 4), 4-fold increase in dose, fed
[8] = 100 mg to 700 mg dose (7-fold increase in dose), fasting
[9] = 400 mg KAR5585, Cohort 3B (test) vs 3A (reference)
[10] = 400 mg KAR5585 single dose, Cohorts 3B vs 3A
[11] = 700 mg to 2000 mg (2.86-fold increase in dose), fasting

In the case of `CCOC(=O)[C@@H]1CC2(CCN(c3cc(O[C@H](c4ccc(Cl)cc4-c4ccccc4)C(F)(F)F)nc(N)n3)CC2)CN1` [KAR5585, (S)-ethyl 8-(2-amino-6-((R)-1-(5-chloro-[1,1′-biphenyl]-2-yl)-2,2,2-trifluoroethoxy)pyrimidin-4-yl)-2,8-diazaspiro[4.5]decane-3-carboxylate], the “fold increase in mean AUC0-12, Day 1” value [1, 7] is reported as 5.1 fold, the “fold increase in mean AUC0-12, Day 14” value [1, 7] is reported as 3.1 fold and the “fold increase in mean AUC0-24, Day 1” value [1, 7] is reported as 3.6 fold. The “fold increase in mean AUC0-24, Day 14” value [1, 7] was 3.6 fold and 3.63 fold, the “fold increase in mean Cmax, Day 1” value [1, 7] was 4.4 fold and the “fold increase in mean Cmax, Day 14” value [1, 7] was about 3.0 fold. The “RAUC0-12 (accumulation ratio for AUC0-12), range Day 7/Day 1 and Day 14/Day 1” value ([1]; 100 mg KAR5585 BID) was 2.75-3.32, the “RAUC0-12 (accumulation ratio for AUC0-12), range Day 7/Day 1 and Day 14/Day 1” value ([1]; 200 mg KAR5585 BID) was 0.76-0.93 and the “RAUC0-12 (accumulation ratio for AUC0-12), range Day 7/Day 1 and Day 14/Day 1” value ([1]; 400 mg KAR5585 BID) was 1.6-2.01. For the same molecule, the AUC0-24 ([1]; 400 mg/dose Fasted Cohort 4, Day 1 PM) was 760 ng·h/mL, the AUC0-24 ([1]; 400 mg/dose Fasted Cohort 4, Day 7 PM) was 870 ng·h/mL and the “mean difference vs placebo of absolute and relative changes from Day 1 to Day 14 in serum 5-HT concentration, significance” value [2] was “statistically significant in favor of KAR5585 compared to placebo for the 400 mg fed and all KAR5585 doses pooled; also recorded: statistically significant for the highest dose group (400 mg fed) and for all KAR5585 doses pooled”. The “fold increase in mean AUC0-24” value [3, 8] was 8.7 fold, the “fold increase in mean AUC0-inf” value [3, 8] was 8.8 fold and the “AUC0-inf, Geometric LS Mean Ratio (fed/fasting)” value [3, 9] was 3.14. The “AUC0-tau, Geometric LS Mean Ratio (fed/fasting)” value [3, 9] was 4.84, the “exposure as assessed by AUC0-tau and AUC0-inf, fed relative to fasting” value ([3]; 400 mg KAR5585 single dose) was 3.1-4.8 fold and the “fold increase in Cmax, fed vs fasting” value [3, 10] was 3.2 fold. For the same molecule, the “peak mean concentration under fed relative to fasting conditions, % higher” value [3, 10] was “approximately 320%”, the “fold increase in AUC0-24” value [3, 11] was 1.86 fold and the “fold increase in AUC0-inf” value [3, 11] was 1.78 fold. The AUC(0-t) ([3]; in vivo, 2000 mg, Plasma AUC0-96, KAR5585 in plasma, 2000 mg KAR5585 single oral dose, mean) was 779 ng·h/mL, the AUC(0-t) ([3]; plasma, 100 mg, AUC0-12, 100 mg KAR5585 single oral, fasted, Cohort 1, Geo. Mean) was 46.2 ng·h/mL and the AUC(0-t) ([3]; plasma, 100 mg, AUC0-12, 100 mg KAR5585 single oral, fasted, Cohort 1, Mean) was 48.1 ng·h/mL. It also gave an AUC(0-t) ([3]; plasma, 100 mg, AUC0-24, 100 mg KAR5585 single oral, fasted, Cohort 1, Geo. Mean) of 47.5 ng·h/mL, an AUC(0-t) ([3]; plasma, 100 mg, AUC0-24, 100 mg KAR5585 single oral, fasted, Cohort 1, Mean) of 49.6 ng·h/mL and an AUC(0-t) ([3]; plasma, 100 mg, Plasma AUC0-96, KAR5585 in plasma, 100 mg KAR5585 single oral dose, mean) of 49.7 ng·h/mL. For the same molecule, the AUC(0-t) ([3]; plasma, 200 mg, AUC0-12, 200 mg KAR5585 single oral, fasted, Cohort 2, Geo. Mean) was 83.3 ng·h/mL, the AUC(0-t) ([3]; plasma, 200 mg, AUC0-12, 200 mg KAR5585 single oral, fasted, Cohort 2, Mean) was 85.8 ng·h/mL and the AUC(0-t) ([3]; plasma, 200 mg, AUC0-24, 200 mg KAR5585 single oral, fasted, Cohort 2, Geo. Mean) was 93.4 ng·h/mL. The AUC(0-t) ([3]; plasma, 200 mg, AUC0-24, 200 mg KAR5585 single oral, fasted, Cohort 2, Mean) was 97.1 ng·h/mL, the AUC(0-t) ([3]; plasma, 200 mg, Plasma AUC0-96, KAR5585 in plasma, 200 mg KAR5585 single oral dose, mean) was 100 ng·h/mL and the AUC(0-t) ([3]; plasma, 400 mg, AUC0-12, 400 mg KAR5585 single oral, fasted, Cohort 3A, Geo. Mean) was 231 ng·h/mL. It also gave an AUC(0-t) ([3]; plasma, 400 mg, AUC0-12, 400 mg KAR5585 single oral, fasted, Cohort 3A, Mean) of 246 ng·h/mL, an AUC(0-t) ([3]; plasma, 400 mg, AUC0-12, 400 mg KAR5585 single oral, fed, Cohort 3B, Geo. Mean) of 756 ng·h/mL and an AUC(0-t) ([3]; plasma, 400 mg, AUC0-12, 400 mg KAR5585 single oral, fed, Cohort 3B, Mean) of 761 ng·h/mL. The AUC(0-t) ([3]; plasma, 400 mg, AUC0-24, 400 mg KAR5585 single oral, fasted, Cohort 3A, Geo. Mean) was 283 ng·h/mL, the AUC(0-t) ([3]; plasma, 400 mg, AUC0-24, 400 mg KAR5585 single oral, fasted, Cohort 3A, Mean) was 297 ng·h/mL and the AUC(0-t) ([3]; plasma, 400 mg, AUC0-24, 400 mg KAR5585 single oral, fed, Cohort 3B, Geo. Mean) was 876 ng·h/mL. The AUC(0-t) ([3]; plasma, 400 mg, AUC0-24, 400 mg KAR5585 single oral, fed, Cohort 3B, Mean) was 885 ng·h/mL, the AUC(0-t) ([3]; plasma, 400 mg, Plasma AUC0-96, KAR5585 in plasma, 400 mg (Fasted) KAR5585 single oral dose, mean) was 303 ng·h/mL and the AUC(0-t) ([3]; plasma, 400 mg, Plasma AUC0-96, KAR5585 in plasma, 400 mg (Fed) KAR5585 single oral dose, mean) was 917 ng·h/mL. It also gave an AUC(0-t) ([3]; plasma, 700 mg, AUC0-12, 700 mg KAR5585 single oral, fasted, Cohort 4, Geo. Mean) of 372 ng·h/mL, an AUC(0-t) ([3]; plasma, 700 mg, AUC0-12, 700 mg KAR5585 single oral, fasted, Cohort 4, Mean) of 392 ng·h/mL and an AUC(0-t) ([3]; plasma, 700 mg, AUC0-24, 700 mg KAR5585 single oral, fasted, Cohort 4, Geo. Mean) of 409 ng·h/mL. It also gave an AUC(0-t) ([3]; plasma, 700 mg, AUC0-24, 700 mg KAR5585 single oral, fasted, Cohort 4, Mean) of 432 ng·h/mL, an AUC(0-t) ([3]; plasma, 700 mg, Plasma AUC0-96, KAR5585 in plasma, 700 mg KAR5585 single oral dose, mean) of 436 ng·h/mL and an AUC(0-t) ([3]; plasma, 1200 mg, AUC0-12, 1200 mg KAR5585 single oral, fasted, Cohort 5, Geo. Mean) of 356 ng·h/mL. It also gave an AUC(0-t) ([3]; plasma, 1200 mg, AUC0-12, 1200 mg KAR5585 single oral, fasted, Cohort 5, Mean) of 402 ng·h/mL, an AUC(0-t) ([3]; plasma, 1200 mg, AUC0-24, 1200 mg KAR5585 single oral, fasted, Cohort 5, Geo. Mean) of 400 ng·h/mL and an AUC(0-t) ([3]; plasma, 1200 mg, AUC0-24, 1200 mg KAR5585 single oral, fasted, Cohort 5, Mean) of 453 ng·h/mL. The AUC(0-t) ([3]; plasma, 1200 mg, Plasma AUC0-96, KAR5585 in plasma, 1200 mg KAR5585 single oral dose, mean) was 463 ng·h/mL, the AUC(0-t) ([3]; plasma, 2000 mg, AUC0-12, 2000 mg KAR5585 single oral, fasted, Cohort 6, Geo. Mean) was 558 ng·h/mL and the AUC(0-t) ([3]; plasma, 2000 mg, AUC0-12, 2000 mg KAR5585 single oral, fasted, Cohort 6, Mean) was 624 ng·h/mL. For the same molecule, the AUC(0-t) ([3]; plasma, 2000 mg, AUC0-24, 2000 mg KAR5585 single oral, fasted, Cohort 6, Geo. Mean) was 696 ng·h/mL, the “difference of absolute and relative changes from Day 1 in measured urine 5-HIAA vs placebo, significance” value ([4]; Days 7 and 14) was “statistically significant in favor of KAR5585 in all dose groups except one” and the “mean differences vs placebo of absolute and relative changes from Day 1 to Day 14 in urine 5-HIAA/24 hours, significance” value [4] was “statistically significant in favor of KAR5585 in all dose groups except one”. The AUC(0-t) [5] was 808 ng·h/mL.

In the case of `CCOC(=O)[C@@H]1CC2(CCN(c3cc(O[C@H](c4ccc(Cl)cc4-c4ccccc4)C(F)(F)F)nc(N)n3)CC2)CN1` [Form 3, (S)-ethyl 8-(2-amino-6-((R)-1-(5-chloro-[1,1′-biphenyl]-2-yl)-2,2,2-trifluoroethoxy)pyrimidin-4-yl)-2,8-diazaspiro[4.5]decane-3-carboxylate], the “thermodynamic stability relative to Form 1” value [6] is reported as “substantially greater thermodynamic stability compared to Form 1”.

“And” between values parts separate entries of the source, which are not always exact repeats. Equal entries are not always repeated. “Also recorded” adds a separate entry of the source.
